Measured values: patent US9587265

Chains of the proteins cited; added tags and fusions are not shown.
diubiquitin substrates of TRABID (Lys29-, Lys33- and Lys63-linked diUb), P0CG48, UniProt P0CG48, whole entry, looked up: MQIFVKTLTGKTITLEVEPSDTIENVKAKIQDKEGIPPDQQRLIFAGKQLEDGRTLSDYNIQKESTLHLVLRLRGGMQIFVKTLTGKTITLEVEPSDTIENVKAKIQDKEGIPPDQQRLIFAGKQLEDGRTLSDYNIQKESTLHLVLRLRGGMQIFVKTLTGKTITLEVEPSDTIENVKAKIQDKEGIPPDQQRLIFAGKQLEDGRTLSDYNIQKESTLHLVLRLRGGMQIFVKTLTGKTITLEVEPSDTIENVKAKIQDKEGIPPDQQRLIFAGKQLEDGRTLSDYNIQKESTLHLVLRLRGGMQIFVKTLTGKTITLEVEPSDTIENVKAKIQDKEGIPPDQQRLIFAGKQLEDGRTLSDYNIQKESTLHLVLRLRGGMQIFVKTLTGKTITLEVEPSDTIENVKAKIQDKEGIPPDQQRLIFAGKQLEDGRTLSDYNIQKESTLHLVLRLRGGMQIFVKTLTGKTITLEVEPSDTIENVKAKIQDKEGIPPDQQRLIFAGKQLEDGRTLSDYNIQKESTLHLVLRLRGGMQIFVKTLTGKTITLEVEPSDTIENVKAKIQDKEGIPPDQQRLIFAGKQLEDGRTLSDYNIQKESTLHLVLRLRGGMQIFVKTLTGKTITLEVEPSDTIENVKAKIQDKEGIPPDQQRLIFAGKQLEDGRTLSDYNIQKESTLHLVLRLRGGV

The proteins below were run against diubiquitin substrates of TRABID (Lys29-, Lys33- and Lys63-linked diUb), P0CG48.

Protein	Trabid activity against diUb substrates (DUB assay)	DUB activity
full-length TRABID H317A (HEK293-expressed, N-terminal 3xFLAG-tag) (protein) MSERGIKWACEYCTYENWPSAIKCTMCRAQRPSGTIITEDPFKSGSSDVGRDWDPSSTEGGSSPLICPDSSARPRVKSSYSMENANKWSCHMCTYLNWPRAIRCTQCLSQRRTRSPTESPQSSGSGSRPVAFSVDPCEEYNDRNKLNTRTQHWTCSVCTYENWAKAKRCVVCDHPRPNNIEAIELAETEEASSIINEQDRARWRGSCSSGNSQRRSPPATKRDSEVKMDFQRIELAGAVGSKEELEVDFKKLKQIKNRMKKTDWLFLNACVGVVEGDLAAIEAYKSSGGDIARQLTADEVRLLNRPSAFDVGYTLVALAIRFQRQDMLAILLTEVSQQAAKCIPAMVCPELTEQIRREIAASLHQRKGDFACYFLTDLVTFTLPADIEDLPPTVQEKLFDEVLDRDVQKELEEESPIINWSLELATRLDSRLYALWNRTAGDCLLDSVLQATWGIYDKDSVLRKALHDSLHDCSHWFYTRWKDWESWYSQSFGLHFSLREEQWQEDWAFILSLASQPGASLEQTHIFVLAHILRRPIIVYGVKYYKSFRGETLGYTRFQGVYLPLLWEQSFCWKSPIALGYTRGHFSALVAMENDGYGNRGAGANLNTDDDVTITFLPLVDSERKLLHVHFLSAQELGNEEQQEKLLREWLDCCVTEGGVLVAMQKSSRRRNHPLVTQMVEKWLDRYRQIRPCTSLSDGEEDEDDEDE	significantly reduced Trabid activity against diUb substrates	–
full-length TRABID L332E (HEK293-expressed, N-terminal 3xFLAG-tag) (protein) MSERGIKWACEYCTYENWPSAIKCTMCRAQRPSGTIITEDPFKSGSSDVGRDWDPSSTEGGSSPLICPDSSARPRVKSSYSMENANKWSCHMCTYLNWPRAIRCTQCLSQRRTRSPTESPQSSGSGSRPVAFSVDPCEEYNDRNKLNTRTQHWTCSVCTYENWAKAKRCVVCDHPRPNNIEAIELAETEEASSIINEQDRARWRGSCSSGNSQRRSPPATKRDSEVKMDFQRIELAGAVGSKEELEVDFKKLKQIKNRMKKTDWLFLNACVGVVEGDLAAIEAYKSSGGDIARQLTADEVRLLNRPSAFDVGYTLVHLAIRFQRQDMLAILETEVSQQAAKCIPAMVCPELTEQIRREIAASLHQRKGDFACYFLTDLVTFTLPADIEDLPPTVQEKLFDEVLDRDVQKELEEESPIINWSLELATRLDSRLYALWNRTAGDCLLDSVLQATWGIYDKDSVLRKALHDSLHDCSHWFYTRWKDWESWYSQSFGLHFSLREEQWQEDWAFILSLASQPGASLEQTHIFVLAHILRRPIIVYGVKYYKSFRGETLGYTRFQGVYLPLLWEQSFCWKSPIALGYTRGHFSALVAMENDGYGNRGAGANLNTDDDVTITFLPLVDSERKLLHVHFLSAQELGNEEQQEKLLREWLDCCVTEGGVLVAMQKSSRRRNHPLVTQMVEKWLDRYRQIRPCTSLSDGEEDEDDEDE	significantly reduced Trabid activity against diUb substrates	–
full-length TRABID I320D (HEK293-expressed, N-terminal 3xFLAG-tag) (protein) MSERGIKWACEYCTYENWPSAIKCTMCRAQRPSGTIITEDPFKSGSSDVGRDWDPSSTEGGSSPLICPDSSARPRVKSSYSMENANKWSCHMCTYLNWPRAIRCTQCLSQRRTRSPTESPQSSGSGSRPVAFSVDPCEEYNDRNKLNTRTQHWTCSVCTYENWAKAKRCVVCDHPRPNNIEAIELAETEEASSIINEQDRARWRGSCSSGNSQRRSPPATKRDSEVKMDFQRIELAGAVGSKEELEVDFKKLKQIKNRMKKTDWLFLNACVGVVEGDLAAIEAYKSSGGDIARQLTADEVRLLNRPSAFDVGYTLVHLADRFQRQDMLAILLTEVSQQAAKCIPAMVCPELTEQIRREIAASLHQRKGDFACYFLTDLVTFTLPADIEDLPPTVQEKLFDEVLDRDVQKELEEESPIINWSLELATRLDSRLYALWNRTAGDCLLDSVLQATWGIYDKDSVLRKALHDSLHDCSHWFYTRWKDWESWYSQSFGLHFSLREEQWQEDWAFILSLASQPGASLEQTHIFVLAHILRRPIIVYGVKYYKSFRGETLGYTRFQGVYLPLLWEQSFCWKSPIALGYTRGHFSALVAMENDGYGNRGAGANLNTDDDVTITFLPLVDSERKLLHVHFLSAQELGNEEQQEKLLREWLDCCVTEGGVLVAMQKSSRRRNHPLVTQMVEKWLDRYRQIRPCTSLSDGEEDEDDEDE	significantly reduced Trabid activity against diUb substrates	–
TRABID AnkOTU H317A (bacterially produced) (protein) LEVDFKKLKQIKNRMKKTDWLFLNACVGVVEGDLAAIEAYKSSGGDIARQLTADEVRLLNRPSAFDVGYTLVALAIRFQRQDMLAILLTEVSQQAAKCIPAMVCPELTEQIRREIAASLHQRKGDFACYFLTDLVTFTLPADIEDLPPTVQEKLFDEVLDRDVQKELEEESPIINWSLELATRLDSRLYALWNRTAGDCLLDSVLQATWGIYDKDSVLRKALHDSLHDCSHWFYTRWKDWESWYSQSFGLHFSLREEQWQEDWAFILSLASQPGASLEQTHIFVLAHILRRPIIVYGVKYYKSFRGETLGYTRFQGVYLPLLWEQSFCWKSPIALGYTRGHFSALVAMENDGYGNRGAGANLNTDDDVTITFLPLVDSERKLLHVHFLSAQELGNEEQQEKLLREWLDCCVTEGGVLVAMQKSSRRRNHPLVTQMVEKWLDRYRQIRPCTSLS	significantly reduced Trabid activity against diUb substrates	–
TRABID AnkOTU L332E (bacterially produced) (protein) LEVDFKKLKQIKNRMKKTDWLFLNACVGVVEGDLAAIEAYKSSGGDIARQLTADEVRLLNRPSAFDVGYTLVHLAIRFQRQDMLAILETEVSQQAAKCIPAMVCPELTEQIRREIAASLHQRKGDFACYFLTDLVTFTLPADIEDLPPTVQEKLFDEVLDRDVQKELEEESPIINWSLELATRLDSRLYALWNRTAGDCLLDSVLQATWGIYDKDSVLRKALHDSLHDCSHWFYTRWKDWESWYSQSFGLHFSLREEQWQEDWAFILSLASQPGASLEQTHIFVLAHILRRPIIVYGVKYYKSFRGETLGYTRFQGVYLPLLWEQSFCWKSPIALGYTRGHFSALVAMENDGYGNRGAGANLNTDDDVTITFLPLVDSERKLLHVHFLSAQELGNEEQQEKLLREWLDCCVTEGGVLVAMQKSSRRRNHPLVTQMVEKWLDRYRQIRPCTSLS	significantly reduced Trabid activity against diUb substrates	–
TRABID AnkOTU I320D (bacterially produced) (protein) LEVDFKKLKQIKNRMKKTDWLFLNACVGVVEGDLAAIEAYKSSGGDIARQLTADEVRLLNRPSAFDVGYTLVHLADRFQRQDMLAILLTEVSQQAAKCIPAMVCPELTEQIRREIAASLHQRKGDFACYFLTDLVTFTLPADIEDLPPTVQEKLFDEVLDRDVQKELEEESPIINWSLELATRLDSRLYALWNRTAGDCLLDSVLQATWGIYDKDSVLRKALHDSLHDCSHWFYTRWKDWESWYSQSFGLHFSLREEQWQEDWAFILSLASQPGASLEQTHIFVLAHILRRPIIVYGVKYYKSFRGETLGYTRFQGVYLPLLWEQSFCWKSPIALGYTRGHFSALVAMENDGYGNRGAGANLNTDDDVTITFLPLVDSERKLLHVHFLSAQELGNEEQQEKLLREWLDCCVTEGGVLVAMQKSSRRRNHPLVTQMVEKWLDRYRQIRPCTSLS	significantly reduced Trabid activity against diUb substrates	–
TRABID AnkOTU, crystallized fragment including AnkUBD and OTU domain (protein) LEVDFKKLKQIKNRMKKTDWLFLNACVGVVEGDLAAIEAYKSSGGDIARQLTADEVRLLNRPSAFDVGYTLVHLAIRFQRQDMLAILLTEVSQQAAKCIPAMVCPELTEQIRREIAASLHQRKGDFACYFLTDLVTFTLPADIEDLPPTVQEKLFDEVLDRDVQKELEEESPIINWSLELATRLDSRLYALWNRTAGDCLLDSVLQATWGIYDKDSVLRKALHDSLHDCSHWFYTRWKDWESWYSQSFGLHFSLREEQWQEDWAFILSLASQPGASLEQTHIFVLAHILRRPIIVYGVKYYKSFRGETLGYTRFQGVYLPLLWEQSFCWKSPIALGYTRGHFSALVAMENDGYGNRGAGANLNTDDDVTITFLPLVDSERKLLHVHFLSAQELGNEEQQEKLLREWLDCCVTEGGVLVAMQKSSRRRNHPLVTQMVEKWLDRYRQIRPCTSLS	–	displayed significantly higher DUB activity compared to the isolated OTU domain
